Measured values published in PubChem BioAssay AID1259312 (Keith Lab, Institute of Cancer Science, University of …, 2017).
The list shows a part of the results, in another mix than the full data. Some of these compounds have results that are not shown, active ones among them. Activity calls are given as the source filed them.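 The calls were made as follows: active = cell survival measured by absorbance rises more than 2.5-fold over infected cells without compound; inactive = the rest.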

Assay: survival after telomere uncapping, modulators, primary screen, cell-based (AID 1259312);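 also: virus expresses mutant telomerase RNA that uncaps telomeres and kills cells; compound added 2 days after infection so exposure lasts 3 days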
Settings: HCT116 + Ad-hTR-mut, MTT, 5 d, at 10 µM, stronger effect = higher value

Row | Compound | fold change
1 | Cc1cc(C)c(C=C(C#N)C#N)c(C)c1 | inactive: -1.08
